From paper PMC9452295

Biological target: MRAS(1–178)–Avi, biotinylated, wild type (human) (UniProt O14807)
Experiment: FRET; MRAS WT/RBD pair
Settings: natural protein

Substance: full-length SHOC2 (residues 2–582), untagged (from UniProt Q9UQ13 2-582)
- IC50: 1.92 µM
